Source: PubChem (Broad Institute)
This is a sample that favours compounds with a hit; in the whole collection about 2.1% have one here.
UUG fidelity = alters start codon recognition fidelity in yeast. 350,000 tested, 0.13% active. activity score, % at 18.7 µM. S. cerevisiae UUG-firefly luciferase reporter, luminescence/redox ratio;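 active = replicate mean at a twofold rise or more, about +100% in these data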;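 also: firefly luciferase made from a UUG start codon reports start codon fidelity; reporter light over untreated wells divided by growth signal over untreated wells; some hits fall short of that in this replicate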
TRPM1 prom inh = reduces MITF-dependent TRPM1 promoter luciferase signal; AID 488899; SK-MEL-5 TRPM1 promoter luciferase, 24 h; 330,000 compounds, 0.83% hits; inhibition, % at 12.5 µM;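 active = mean inhibition across replicates of 60% or more, whatever share of single replicates reaches that level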
MITF act = increases MITF-driven TRPM1 promoter luciferase signal. SK-MEL-5 TRPM1-promoter luciferase, 24 h; % of positive control, neutral wells = 0. activation, % at 12.5 µM. 300,000 compounds, 0.75% hits;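 active = mean activation of at least 80% with every replicate also reaching 80%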
Wnt act = Wnt/beta-catenin pathway activation | Wnt/beta-catenin reporter cell assay, activator, plate reader | activation, % at 9.35 µM | 300,000 compounds, 1.2% hits; in the data active = activation above about 30%, passing the limit was not always enough
PGC1a acetyl inh = lowers PGC1a acetylation signal in U2OS cells. AlphaScreen anti-acetyl-lysine; with virally co-expressed GCN5 acetyltransferase. 350,000 compounds, 0.17% hits. inhibition, % at 15.6 µM;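 active = every replicate shows inhibition of at least 40%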
miR-122 sensor = miR-122 inhibition in Huh7 cells. activation (reporter increase), % at 12.5 µM. 340,000 compounds, 0.3% hits. Huh7 miR-122 Renilla luciferase sensor, 48 h; neutral wells = 0, positive control = 100. AID 602342;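 active = mean replicate activation score at least 90 and every replicate individually at or above 90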;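 also: higher luciferase means less miR-122 activity so hits act as miR-122 inhibitors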
Of the large screens only hits and unclear results are named; the others gave an inactive call.

COC(=O)CCC(=O)c1oc2ccc(Br)cc2c1N	MITF act 90 (no result: Wnt act)
COc1ccc2oc(C(=O)CCC(=O)O)c(N)c2c1	none
COc1ccc2c(c1)C(C)=CC(C)(C)N2S(=O)(=O)c1ccc(C)cc1	none (no result: UUG fidelity)
CC1=CC(C)(C)N(S(=O)(=O)c2ccc(C)cc2)c2cc(C)ccc21	miR-122 sensor 94 (no result: Wnt act)
CCOc1ccc2c(c1)C(C)=CC(C)(C)N2S(=O)(=O)c1ccc(C)cc1	TRPM1 prom inh 75 (no result: UUG fidelity, miR-122 sensor)
CN(C)C(=O)c1ccc(-c2ccc([C@@H]3[C@@H](CO)N4CCCCN(S(C)(=O)=O)C[C@H]34)cc2)cc1	none (no result: TRPM1 prom inh, MITF act, Wnt act)
COc1ccc(S(=O)(=O)N2CCC3(CC2)CN(C(=O)CN(C)C)[C@@H](CO)c2c3c3ccc(OC)cc3n2C)cc1	none (no result: UUG fidelity, TRPM1 prom inh, MITF act, Wnt act, miR-122 sensor)
O=C(NCc1cccnc1)/C(=C\c1ccc(-c2cccc(Cl)c2)o1)S(=O)(=O)c1ccccc1	TRPM1 prom inh 90 (no result: Wnt act)
O=C(NCc1cccnc1)/C(=C/c1ccc(-c2cccc(Cl)c2)o1)S(=O)(=O)c1ccccc1	none (no result: UUG fidelity, Wnt act)
Cc1ccc(OCC(=O)Nc2ccc(C)c(F)c2)c([N+](=O)[O-])n1	MITF act 114
Cc1ccc(OCC(=O)Nc2ccc3c(c2)OC(F)(F)O3)c([N+](=O)[O-])n1	none (no result: UUG fidelity, Wnt act, PGC1a acetyl inh)
O=[N+]([O-])c1ccc(COc2cccc3cccnc23)cc1	MITF act 93
CCOC(=O)C(=Cc1ccc(OCc2ccc([N+](=O)[O-])cc2)c(OC)c1)C(=O)OCC	PGC1a acetyl inh 57 (no result: UUG fidelity, Wnt act)
O=[N+]([O-])c1ccc(Sc2cccc3cccnc23)c([N+](=O)[O-])c1	TRPM1 prom inh 76
Cc1cccc(-c2ccc([C@H]3[C@H]4CN(CCC(F)(F)F)CCCCN4[C@H]3CO)cc2)c1	none (no result: TRPM1 prom inh, MITF act, Wnt act)
COc1ccc(S(=O)(=O)Nc2ccc3c(c2)C(=O)N([C@@H](C)CO)C[C@@H](C)[C@H](CN(C)Cc2ccc4c(c2)OCO4)O3)cc1	none (no result: TRPM1 prom inh, MITF act, Wnt act)
CCCNC(=O)Nc1ccc2c(c1)OC[C@@H](C)N(C(=O)C1CCC1)C[C@H](C)[C@H](OC)CN(C)C2=O	none (no result: TRPM1 prom inh, MITF act, Wnt act, PGC1a acetyl inh)
Cc1ccc(OCc2ccc([N+](=O)[O-])cc2)c([N+](=O)[O-])n1	MITF act 139, Wnt act 33
Cc1ccc(OCCOc2ccc(Br)cc2)c([N+](=O)[O-])n1	MITF act 123 (no result: PGC1a acetyl inh)
O=C(Nc1ccc2c(c1)OCO2)N[C@H]1C=C[C@@H](CC(=O)N2CCN(c3ccccc3)CC2)O[C@@H]1CO	none (no result: TRPM1 prom inh, MITF act, Wnt act)
CCNC(=O)C[C@H]1CC[C@@H]2[C@H](COC[C@H](O)CN2C(=O)c2cc(Cl)cc(Cl)c2)O1	none (no result: UUG fidelity, TRPM1 prom inh, MITF act, Wnt act)
CC(=O)c1sc2c(c1OC(=O)c1ccc(Cl)cc1Cl)c(=O)n(-c1ccccc1)c(=S)n2-c1ccccc1	TRPM1 prom inh 63
Cc1nc(Sc2nnnn2C)c2c3c(sc2n1)CCC3	TRPM1 prom inh 87
CCc1nc(Sc2nnnn2-c2ccccc2)c2c3c(sc2n1)CCCC3	none (no result: UUG fidelity, PGC1a acetyl inh, miR-122 sensor)
O=C1c2ccccc2C(=O)c2[nH]c(=O)[nH]c21	TRPM1 prom inh 101 (no result: PGC1a acetyl inh)
O=[N+]([O-])c1ccc(Sc2cccc[n+]2[O-])c2nonc12	TRPM1 prom inh 100 (no result: UUG fidelity, PGC1a acetyl inh, miR-122 sensor)
COc1cccc(-c2ccc3c(c2)[C@@H]2[C@@H](CCN2S(=O)(=O)c2ccccc2C)[C@H](CO)N3C)c1	none (no result: TRPM1 prom inh, MITF act, Wnt act)
O=[N+]([O-])c1c(NCCCO)cc(SCc2ccco2)c2nonc12	none (no result: UUG fidelity, PGC1a acetyl inh, miR-122 sensor)
CC(=O)OCCNc1cc(Sc2nc3ccccc3[nH]2)c2nonc2c1[N+](=O)[O-]	TRPM1 prom inh 80 (no result: UUG fidelity, PGC1a acetyl inh)
O=[N+]([O-])c1c(NCCCO)cc(Sc2ccc(Cl)cc2)c2nonc12	TRPM1 prom inh 92 (no result: Wnt act, PGC1a acetyl inh)
Cc1ccc(S(=O)(=O)N(C)C[C@@H]2Oc3ncc(-c4ccncc4)cc3C(=O)N([C@@H](C)CO)C[C@@H]2C)cc1	none (no result: TRPM1 prom inh, MITF act, Wnt act)
O=C(NCC[C@@H]1CC[C@@H](NC(=O)C2CCCCC2)[C@H](CO)O1)c1cc(Cl)cc(Cl)c1	none (no result: TRPM1 prom inh, MITF act, Wnt act, miR-122 sensor)
O=[N+]([O-])c1ccc2c(c1N1CCCCC1)=NC1(CCCCC1)[N+]=2[O-]	none (no result: UUG fidelity, MITF act, miR-122 sensor)
[O-][N+]1=c2ccc(Nc3ccccc3)cc2=NC12CCCCC2	TRPM1 prom inh 61 (no result: PGC1a acetyl inh)
COc1ccc(Nc2ccc3c(c2)=NC2(CCCCC2)[N+]=3[O-])cc1	TRPM1 prom inh 86 (no result: MITF act)
COC(=O)[C@@H]1[C@@H](CO)[C@@H]2Cn3c(ccc(C4=CCCC4)c3=O)[C@@H]2N1C(=O)C1CCCC1	none (no result: TRPM1 prom inh, MITF act, Wnt act, PGC1a acetyl inh)
Fc1ccc(OCc2cc(-c3ccccc3)no2)cc1	MITF act 100
COc1ccc(-c2cc(COc3ccccc3)on2)cc1	none (no result: UUG fidelity, miR-122 sensor)
C[C@H](O)C#Cc1cnc2c(c1)C(=O)N([C@@H](C)CO)C[C@H](C)[C@@H](CN(C)C(=O)Cc1ccccn1)O2	none (no result: TRPM1 prom inh, MITF act, Wnt act)
COc1ccc(NC(=O)Nc2ccc3c(c2)C(=O)N([C@@H](C)CO)C[C@H](C)[C@@H](CN(C)Cc2ccc(C(=O)O)cc2)OCCCC[C@@H](C)O3)cc1	none (no result: TRPM1 prom inh, MITF act, Wnt act)
CCOc1ccc(-c2nnc(-c3cccs3)o2)cc1	Wnt act 31
C=C(C(=O)c1ccccc1)C(NC(C)(C)C)c1ccccc1 (stereo unspecified)	TRPM1 prom inh 99 (no result: UUG fidelity, PGC1a acetyl inh, miR-122 sensor)
COCC(=O)Nc1ccc2c(c1)OC[C@H](C)N(C(=O)c1cnccn1)C[C@H](C)[C@@H](OC)CN(C)C2=O	none (no result: UUG fidelity, TRPM1 prom inh, MITF act, Wnt act, miR-122 sensor)
